Publication PMC6459613 (ACS chemical biology, 2012)

Sequences of proteins named here, by UniProt entry; tags and fusion partners are left off.
UniProt Q16539, whole entry: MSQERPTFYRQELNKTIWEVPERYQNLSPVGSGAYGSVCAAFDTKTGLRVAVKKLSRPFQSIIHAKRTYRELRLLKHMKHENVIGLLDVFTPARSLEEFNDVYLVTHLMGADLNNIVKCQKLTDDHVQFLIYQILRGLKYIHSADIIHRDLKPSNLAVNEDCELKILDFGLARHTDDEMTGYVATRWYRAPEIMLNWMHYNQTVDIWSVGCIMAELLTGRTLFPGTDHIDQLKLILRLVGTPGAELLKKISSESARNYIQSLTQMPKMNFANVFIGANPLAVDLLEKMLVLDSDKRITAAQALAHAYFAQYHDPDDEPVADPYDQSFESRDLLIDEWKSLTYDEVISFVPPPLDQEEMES

What was measured:
Type in all cases: biochemical
JNK2 (R127A) = JNK2 (R127A) (Homo sapiens, UniProt P45984, R127A); test: Phosphorylation of GST-c-Jun
JNK2 (W324A) = JNK2 (W324A) (Homo sapiens, UniProt P45984, W324A); test: Phosphorylation of GST-c-Jun
JNK2 (T164A) = JNK2 (T164A) (Homo sapiens, UniProt P45984, T164A); test: Phosphorylation of GST-c-Jun
JNK2 (C163A) = JNK2 (C163A) (Homo sapiens, UniProt P45984, C163A); test: Phosphorylation of GST-c-Jun
JNK2 (Y130A) = JNK2 (Y130A) (Homo sapiens, UniProt P45984, Y130A); test: Phosphorylation of GST-c-Jun
JNK2 (D326A) = JNK2 (D326A) (Homo sapiens, UniProt P45984, D326A); test: Phosphorylation of GST-c-Jun
JNK2 = JNK2 (Homo sapiens, UniProt P45984); test: Phosphorylation of GST-c-Jun; settings: JNK2 WT
p38MAPKα = p38MAPKα (Homo sapiens, UniProt Q16539); test: MAP kinase selectivity assay, p38MAPKα

## (−)-zuonin A
JNK2 (R127A)
  IC50: 14 ± 2.1 µM
JNK2 (W324A)
  % Inhibition at 200 μM: 98%
JNK2 (T164A)
  IC50: 13.6 ± 1.5 µM
JNK2 (T164A); 200 μM
  % Inhibition at 200 μM: 39%
JNK2 (C163A)
  IC50: 37 ± 2.5 µM
JNK2 (C163A); 200 μM
  % Inhibition at 200 μM: 37%
JNK2 (Y130A)
  IC50: 2.3 ± 0.16 µM
JNK2 (Y130A); 200 μM
  % Inhibition at 200 μM: 95%
JNK2 (D326A)
  IC50: 2.8 ± 0.32 µM
JNK2 (D326A); 200 μM
  % Inhibition at 200 μM: 71%
JNK2; 200 μM
  % Inhibition at Saturating (−)-zuonin A (200 μM): 70%
JNK2; GST-c-Jun 2 μM
  IC50: 2.9 ± 0.17 µM
p38MAPKα
  IC50: > 200 µM
p38MAPKα; 200 μM
  % Inhibition at Saturating (−)-zuonin A (200 μM): 20%
